Experimental data published in patent US20220411487A1 (Regeneron, published 2022).

Tests used:
mfTMPRSS6_S751A-MMH = target: T1, mfTMPRSS6_S751A-MMH (Macaca fascicularis, UniProt Q8IU80 77-811 (human entry)); assay: SPR, mAb captured via anti-hFc, 25 C
T1 construct: also called REGN5977; Macaca fascicularis TMPRSS6 extracellular domain with a S751A mutation and a C-terminal myc-myc-hexahistidine tag
T1 chain: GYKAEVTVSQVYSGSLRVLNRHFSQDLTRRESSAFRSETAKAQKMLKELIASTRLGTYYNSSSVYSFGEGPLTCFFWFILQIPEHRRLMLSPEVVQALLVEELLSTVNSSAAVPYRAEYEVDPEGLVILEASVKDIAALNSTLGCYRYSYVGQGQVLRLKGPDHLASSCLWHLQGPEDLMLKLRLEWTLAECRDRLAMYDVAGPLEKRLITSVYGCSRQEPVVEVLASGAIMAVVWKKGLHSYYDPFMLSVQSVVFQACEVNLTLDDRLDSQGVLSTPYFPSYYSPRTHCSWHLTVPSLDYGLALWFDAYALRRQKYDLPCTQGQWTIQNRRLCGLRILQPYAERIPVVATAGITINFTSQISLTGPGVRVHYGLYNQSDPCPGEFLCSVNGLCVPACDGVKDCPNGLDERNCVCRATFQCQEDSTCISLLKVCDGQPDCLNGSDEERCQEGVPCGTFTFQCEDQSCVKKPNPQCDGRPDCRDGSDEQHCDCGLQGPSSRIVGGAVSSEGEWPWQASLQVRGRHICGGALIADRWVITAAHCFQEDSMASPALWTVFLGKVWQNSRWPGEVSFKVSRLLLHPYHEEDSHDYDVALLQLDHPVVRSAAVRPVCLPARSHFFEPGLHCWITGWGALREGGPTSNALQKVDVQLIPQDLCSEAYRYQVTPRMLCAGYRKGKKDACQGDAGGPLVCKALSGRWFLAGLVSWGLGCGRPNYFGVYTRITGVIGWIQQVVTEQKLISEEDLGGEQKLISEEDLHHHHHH
Experimental: The equilibrium dissociation constant (KD) for TMPRSS6 binding to different TMPRSS6 monoclonal antibodies (mAbs) was determined using a real-time surface plasmon resonance biosensor using a Biacore 4000 instrument. All binding studies were performed in 10 mM HEPES, 150 mM NaCl, 3 mM EDTA, and 0.05% v/v Surfactant Tween-20, pH 7.4 (HBS-ET) running buffer at 25° C. and 37° C. The Biacore CM5 sensor chip surface was first derivatized by amine coupling with a human Fc specific mouse mAb to capture different TMPRSS6 mAbs. […] Different concentrations (100 nM to 3.7 nM, 3-fold serial dilution) of the TMPRSS6 reagent proteins prepared in HBS-EP running buffer were injected over the TMPRSS6 mAb captured surface for 150 seconds at a flow rate of 30 μL/min and their dissociation in HBS-ET running buffer was monitored for 10 minutes. At the end of each cycle, the TMPRSS6 mAb captured surface was regenerated using a 12 second injection of 20 mM phosphoric acid.
The association rate (kₐ) and dissociation rate (kd) were determined by fitting the real-time binding sensorgrams to a 1:1 binding model with mass transport limitation using Scrubber 2.0 (BioLogic Software) curve-fitting software. Binding dissociation equilibrium constant (KD) and dissociative half-life (t½) were calculated from the kinetic rates as: […]

[1] = target: T2, full length human TMPRSS6 with a C-terminal triple myc tag on HEK293.hHJV cells (HEK293.hHJV/3xMyc.hTMPRSS6) (human, UniProt Q8IU80 1-811); assay: cell-based or functional assay
T2 sequence: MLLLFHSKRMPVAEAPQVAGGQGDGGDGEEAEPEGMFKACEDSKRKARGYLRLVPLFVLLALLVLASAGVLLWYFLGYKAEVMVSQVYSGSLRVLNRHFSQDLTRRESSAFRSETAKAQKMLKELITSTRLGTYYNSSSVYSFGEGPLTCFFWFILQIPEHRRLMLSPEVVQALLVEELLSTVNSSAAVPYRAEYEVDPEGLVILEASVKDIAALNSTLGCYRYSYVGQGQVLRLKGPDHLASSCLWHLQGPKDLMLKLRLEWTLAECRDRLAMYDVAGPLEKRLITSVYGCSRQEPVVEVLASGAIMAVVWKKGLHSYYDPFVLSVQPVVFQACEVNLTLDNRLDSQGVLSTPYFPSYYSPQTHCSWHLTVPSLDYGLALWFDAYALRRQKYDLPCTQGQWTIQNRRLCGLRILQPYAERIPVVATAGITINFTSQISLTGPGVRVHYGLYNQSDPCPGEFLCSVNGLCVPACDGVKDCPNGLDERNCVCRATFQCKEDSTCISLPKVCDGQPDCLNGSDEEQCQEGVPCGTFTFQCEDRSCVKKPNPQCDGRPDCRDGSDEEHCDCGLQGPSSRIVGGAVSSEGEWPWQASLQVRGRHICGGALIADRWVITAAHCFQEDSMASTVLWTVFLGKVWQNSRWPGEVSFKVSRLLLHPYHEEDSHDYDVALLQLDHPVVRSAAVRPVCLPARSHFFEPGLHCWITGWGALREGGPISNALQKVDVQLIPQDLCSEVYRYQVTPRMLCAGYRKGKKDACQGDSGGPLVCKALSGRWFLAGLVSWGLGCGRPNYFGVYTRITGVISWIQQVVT

B1: REGN7973 (antibody, human IgG4 S228P, kappa, V domains shown)
VH: EVQLVESGGGLVKPGGSLRLSCAASGFTFSNAWMSWVRQAPGKGLEWVGRIKSKTDSGTTDYAAPVKGRFTISRDDSKNTLYLQMNSLKTEDTAVYYCTTVDNDFWSGYYNWFDPWGQGTLVTVSS
VL: [gap - about 100 residues]
notes: fully human; human IgG4 Fc with hinge S108P; also called mAb37777
In the case of B1, the “100 nM Ag Bound” value (mfTMPRSS6_S751A-MMH) is reported as 132 RU, the Kd (mfTMPRSS6_S751A-MMH) is reported as 2.37 nM and the koff (mfTMPRSS6_S751A-MMH) is reported as 0.000514 s⁻¹. The kon (mfTMPRSS6_S751A-MMH) was 217000 M⁻¹ s⁻¹, the t½ (mfTMPRSS6_S751A-MMH) was 22 min and the “Geometric Mean Fluorescence Intensity of cell surface hHJV, 50 nM mAb” value [1] was 46100. For the same binder, the “Median Fluorescence Intensity of cell surface hHJV, 50 nM mAb” value [1] was 63500.
